The results in this text go back to patent US4282232A, “Nitroimidazole radiosensitizers for hypoxic tumor cells and compositions thereof” (priority 1979, dated 1981).

One series can be described thus: in vivo. As to conditions: mouse, ip. The procedure: Neurotoxicity in mice was determined using mice of strain BDF1. This was carried out by (1) determining the LD50 of each compound in mice and (2) observing the animals for acute neurotoxic symptoms such as convulsions. The drugs were either solubilized or suspended in normal saline and administered intraperitoneally to groups of 10 mice.

Series [1] concerns Chinese hamster cells line V-79-753 B. The series can be described thus: Radiosensitization of hypoxic Chinese hamster cells (Cobalt-60 irradiation, enhancement ratio). The conditions noted are these: 1395 rad Cobalt-60. Type of series: cell-based. The procedure: Asynchronous monolayer cultures of Chinese hamster cells line V-79-753 B were employed in all the experiments. The monolayers were derived from exponentially-growing cultures. Methods of culturing and handling have been reported earlier by Cooke et al, Rad. Res. 65, 152 (1976). The plated cultures were rendered hypoxic in sealed dural containers capable of holding four petri dishes, by purging with nitrogen (oxygen-free grade) for one hour. Irradiation was carried out by using a Cobalt-60 source at a dose rate of approximately 310 rad/min according to the procedure described previously be Cooke et al, supra. A dose of 1395 rad was given to hypoxic cells in glass petri dishes in the presence of a given drug concentration (2000 cells/dish). Cell survival was estimated from unirradiated hypoxic cells exposed to the same drug concentration. Cultures were incubated for 6 days at 37° C. in an atmosphere of 5% CO2; the resulting colonies were fixed in absolute ethanol, stained with methylene blue and counted.

Turning to `COCC(O)Cn1ccnc1[N+](=O)[O-]` (centres unmarked) [F, Misonidazole], in “in vivo”, the LD50 at 24 h came to 1600 mg/kg. Moreover, the “Radiosensitization (enhancement ratio at 1mM in chinese hamster cells)” value in series [1] was determined as 2.2.
